Experimental findings from ChEMBL document CHEMBL3244068 (J Med Chem, 1978) are described below.

Data set [1] is described as follows: Stability of the compound in acetone assessed as hydrolysis at 66 degC after 30 mins. To be noted: 0.5 h.
The subject of another data set is W256. Kind of data set: Antitumor activity against rat Walker 256 cells allografted in rat. The data set is classed as functional.
The next data set relates to L1210. Kind of data set: Antitumor activity against mouse L1210 cells assessed as dose required to produce T/C of 125% administered for 15 days.
The subject of data set [2] is P388. Kind of data set: Antitumor activity against mouse P388 cells allografted in mouse assessed as dose required to produce T/C of 125% administered for 10 days.
The subject of data set [3] is P388. The data set can be described thus: Antitumor activity against mouse P388 cells allografted in mouse assessed as dose required to produce T/C of 180% administered for 10 days.
The test system of data set [4] is P388. The data set can be described thus: Antitumor activity against mouse P388 cells allografted in mouse assessed as dose required to produce T/C of 125% administered for 9 days.
The test system of data set [5] is P388. The data set can be described thus: Antitumor activity against mouse P388 cells allografted in mouse assessed as dose required to produce T/C of 180% administered for 9 days.

`NS(=O)(=O)c1ccc(N(CCCl)CCCl)cc1`: the log(%) in data set [1] was 0.3. This compound also gave a log1/CED90 in the data set with W256 of 2.82.
As for `COc1ccc(N(CCCl)CCCl)cc1`, the log(%) in data set [1] amounted to 1.76. Moreover, the log(1/C) in the data set on L1210 amounted to 4.28.
Consider `Oc1ccc(N(CCBr)CCBr)cc1`, for which the log1/CED90 in the data set with W256 amounted to 5.
With `BrCCN(CCBr)c1ccccc1`, in data set [1], the log(%) came out at 1.9. In the data set on W256, this compound had a log1/CED90 of 4.3.
Turning to `COc1ccccc1N(CCCl)CCCl`, in data set [1], the log(%) came out at 1.95.
For the compound `CCOC(=O)Cc1ccc(N(CCCl)CCCl)cc1`, in data set [1], the log K is -4.04 and the log(%) was 1.19.
The compound `O=C(O)c1ccc(N(CCBr)CCBr)cc1` displayed a log1/CED90 in the data set on W256 of 4.18.
Regarding `O=Cc1ccc(N(CCCl)CCCl)cc1`, in the data set with W256, the log1/CED90 was determined as 2.93.
Turning to `BrCCN(CCBr)c1ccccc1-c1ccccc1`, the log(%) in data set [1] stood at 1.97.
Turning to `CCOC(=O)c1cccc(N(CCCl)CCCl)c1`, in data set [1], the log K is -4.59 and the log(%) was determined as 0.65.
Turning to `O=C(O)c1ccc(N(CCI)CCI)cc1`, the log1/CED90 with W256 was 3.26.
In the case of `CCOC(=O)c1ccc(N(CCCl)CCCl)cc1`, the log(%) in data set [1] stood at 0.18.
Turning to `CC(=O)Sc1ccc(N(CCBr)CCBr)cc1`, the log(%) in data set [1] is 1.41. The compound also showed a log1/CED90 in the data set with W256 of 4.09.
Consider `BrCCN(CCBr)c1ccc(-c2ccccc2)cc1`, for which the log(%) in data set [1] stood at 1.85.
`ClCCN(CCCl)c1ccc(-c2ccccc2)cc1`: in data set [1], the log(%) was 1.08.
Take `Nc1ccc(N(CCCl)CCCl)cc1`: in data set [1], the log(%) was found to be 2.
Still for that read-out and setting: for `N#CSc1ccc(N(CCBr)CCBr)cc1` the value was 1.28.
For the compound `CCOc1ccc(N(CCCl)CCCl)cc1`, in data set [1], the log K was -3.38 and the log(%) is 1.72.
In the case of `ClCCN(CCCl)c1ccc(Br)cc1`, in data set [1], the log K is -4.46 and the log(%) was 0.78.
For the compound `ICCN(CCI)c1ccccc1`, the log1/CED90 in the data set with W256 is 4.08.
Regarding `CSc1ccc(N(CCCl)CCCl)cc1`, in data set [1], the log(%) was determined as 1.11.
In the case of `CC(=O)Nc1ccc(N(CCBr)CCBr)cc1`, the log(%) in data set [1] came out at 1.93. In the data set with W256, the log1/CED90 stood at 5.04.
Regarding `Sc1ccc(N(CCCl)CCCl)cc1`, in data set [1], the log(%) was found to be 1.18.
As to `ClCCN(CCCl)c1ccc(Cl)cc1`, the log(%) in data set [1] is 0.95.
Consider `CCOC(=O)CCc1ccc(N(CCCl)CCCl)cc1`, for which, in data set [1], the log K was -3.88 and the log(%) came to 1.32.
On to `CC(C)(C)c1ccc(N(CCCl)CCCl)cc1`, for which the log(%) in data set [1] was 1.46.
For `NC(=O)Sc1ccc(N(CCCl)CCCl)cc1`, the log(%) in data set [1] stood at 0.9.
For `Cc1ccccc1N(CCCl)CCCl`, the log(%) in data set [1] was found to be 1.92.
For the compound `NC(=O)Sc1ccc(N(CCBr)CCBr)cc1`, the log(%) in data set [1] was 1.6.
The same measure, in the same setting: for `Cc1ccc(N(CCCl)CCCl)cc1` the value was 1.58; for `COc1ccc(N(CCBr)CCBr)cc1`, 1.99.
Consider `CC(=O)Nc1ccc(N(CCCl)CCCl)cc1`, for which, in data set [1], the log K is -3.52 and the log(%) came to 1.62. Also, the log1/CED90 in the data set on W256 was determined as 4.46.
Consider `CC(=O)Nc1ccc(N(CCI)CCI)cc1`, for which the log1/CED90 in the data set on W256 was 4.3.
Regarding `ClCCN(CCCl)c1ccccc1`, in data set [1], the log(%) stood at 1.3.
With `CC(=O)Sc1ccc(N(CCCl)CCCl)cc1`, the log(%) in data set [1] worked out at 0.48. Besides, the log1/CED90 in the data set with W256 is 3.42.
For `NS(=O)(=O)c1ccc(N(CCBr)CCBr)cc1`, the log(%) in data set [1] turned out to be 0.9. This compound came in with a log1/CED90 in the data set on W256 of 3.68. In addition, the log(1/C) in the data set with L1210 was found to be 3.55.
As to `Clc1ccc(N(CCBr)CCBr)cc1`, the log(%) in data set [1] came out at 1.82.
For the compound `CCCCc1ccc(N(CCCl)CCCl)cc1`, in data set [1], the log K was -3.61 and the log(%) stood at 1.56.
As to `Oc1ccc(N(CCCl)CCCl)cc1`, in data set [1], the log K was -3.32 and the log(%) was found to be 1.75.
`NC(=O)c1ccc(N(CCCl)CCCl)cc1`: the log(%) in data set [1] was found to be 0. For the same compound, in the data set on W256, the log1/CED90 amounted to 2.92.
As for `NC(Cc1cccc(N(CCCl)CCCl)c1)C(=O)O` (stereo not given), the log(1/C) is 5.71 in the data set with L1210, 6.09 in the data set on P388 [2] and 5.39 in the data set on P388 [3].
For the compound `Sc1ccc(N(CCBr)CCBr)cc1`, the log(%) in data set [1] stood at 1.85.
Turning to `O=C(O)Cc1ccc(N(CCCl)CCCl)cc1`, the log K in data set [1] was -3.99. Besides, the log(1/C) is 4.79 with L1210, 5.19 in the data set with P388 [4] and 4.87 with P388 [5].
For `ClCCN(CCCl)c1cccc2ccccc12`, the log(%) in data set [1] turned out to be 1.7.
Turning to `N#CSc1ccc(N(CCCl)CCCl)cc1`, in data set [1], the log(%) was 0.48.
In the case of `BrCCN(CCBr)c1ccc2ccccc2c1`, the log(%) in data set [1] is 1.9.
Consider `ClCCN(CCCl)c1ccccc1-c1ccccc1`, for which the log(%) in data set [1] came to 1.49.
